Test results from US20240139211A1, “METHODS AND COMPOSITIONS FOR TREATING AMYOTROPHIC LATERAL SCLEROSIS” (Amylyx Pharmaceuticals, Inc., priority 2022, published 2024).

The chains behind the UniProt entries cited, without tags or fusion partners. Where a name states a change or a piece, a line headed by the entry shows the natural chain unless it says otherwise.
UniProt Q9NPD5: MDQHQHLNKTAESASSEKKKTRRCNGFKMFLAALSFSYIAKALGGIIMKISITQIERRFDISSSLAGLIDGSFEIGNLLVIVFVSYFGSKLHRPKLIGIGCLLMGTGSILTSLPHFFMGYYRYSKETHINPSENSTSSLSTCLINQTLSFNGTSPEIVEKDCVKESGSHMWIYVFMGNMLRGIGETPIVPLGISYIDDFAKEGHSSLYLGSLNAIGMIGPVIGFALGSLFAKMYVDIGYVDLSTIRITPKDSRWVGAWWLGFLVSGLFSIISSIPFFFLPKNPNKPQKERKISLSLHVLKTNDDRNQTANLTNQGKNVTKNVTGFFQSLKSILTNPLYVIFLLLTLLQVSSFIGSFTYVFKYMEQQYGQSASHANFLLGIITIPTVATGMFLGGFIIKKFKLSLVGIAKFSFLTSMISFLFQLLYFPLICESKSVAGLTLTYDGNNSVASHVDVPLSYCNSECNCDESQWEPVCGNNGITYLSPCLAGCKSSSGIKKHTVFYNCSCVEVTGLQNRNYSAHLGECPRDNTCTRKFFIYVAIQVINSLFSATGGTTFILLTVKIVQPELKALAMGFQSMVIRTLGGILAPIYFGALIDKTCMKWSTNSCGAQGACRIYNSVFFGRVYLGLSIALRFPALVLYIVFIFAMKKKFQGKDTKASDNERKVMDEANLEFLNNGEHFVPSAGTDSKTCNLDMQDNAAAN
UniProt O95342, whole entry: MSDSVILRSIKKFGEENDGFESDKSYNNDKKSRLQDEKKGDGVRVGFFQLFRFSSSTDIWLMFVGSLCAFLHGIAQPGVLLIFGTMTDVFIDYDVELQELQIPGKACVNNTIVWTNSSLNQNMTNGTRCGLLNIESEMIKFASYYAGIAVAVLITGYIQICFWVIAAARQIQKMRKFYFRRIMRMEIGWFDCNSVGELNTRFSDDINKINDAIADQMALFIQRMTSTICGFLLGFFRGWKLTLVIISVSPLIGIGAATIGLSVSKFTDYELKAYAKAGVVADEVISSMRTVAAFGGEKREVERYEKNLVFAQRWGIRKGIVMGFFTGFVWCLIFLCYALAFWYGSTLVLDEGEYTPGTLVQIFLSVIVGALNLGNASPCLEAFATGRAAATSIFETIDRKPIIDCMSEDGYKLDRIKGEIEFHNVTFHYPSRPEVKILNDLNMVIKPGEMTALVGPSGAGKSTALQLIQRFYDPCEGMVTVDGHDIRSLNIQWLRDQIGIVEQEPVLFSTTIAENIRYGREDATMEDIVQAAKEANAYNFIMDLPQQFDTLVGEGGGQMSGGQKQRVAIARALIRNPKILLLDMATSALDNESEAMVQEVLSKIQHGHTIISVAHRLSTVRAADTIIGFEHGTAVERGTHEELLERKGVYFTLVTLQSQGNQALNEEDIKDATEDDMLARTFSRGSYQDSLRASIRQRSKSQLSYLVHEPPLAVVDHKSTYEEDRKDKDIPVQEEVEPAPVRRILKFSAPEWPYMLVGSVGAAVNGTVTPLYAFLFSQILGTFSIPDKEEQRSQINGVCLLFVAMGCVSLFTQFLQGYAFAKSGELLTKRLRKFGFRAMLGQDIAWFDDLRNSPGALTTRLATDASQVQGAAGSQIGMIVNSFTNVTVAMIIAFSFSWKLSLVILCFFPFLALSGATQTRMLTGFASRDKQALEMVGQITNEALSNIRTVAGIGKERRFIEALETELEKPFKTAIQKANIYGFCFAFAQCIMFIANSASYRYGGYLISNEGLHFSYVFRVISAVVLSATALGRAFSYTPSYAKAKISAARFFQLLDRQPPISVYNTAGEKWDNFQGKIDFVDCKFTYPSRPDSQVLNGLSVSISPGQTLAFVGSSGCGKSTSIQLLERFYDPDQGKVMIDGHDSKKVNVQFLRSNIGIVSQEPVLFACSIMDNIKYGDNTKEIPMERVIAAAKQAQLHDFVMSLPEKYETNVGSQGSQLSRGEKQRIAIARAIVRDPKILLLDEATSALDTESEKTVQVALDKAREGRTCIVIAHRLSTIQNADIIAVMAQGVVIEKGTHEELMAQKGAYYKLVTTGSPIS

Experiments:
OATP1B3 = OATP1B3 (Homo sapiens, UniProt Q9NPD5); experiment: Substrate of OATP1B3, uptake in HEK293 cells; details: probe substrate 1 μM
BSEP [1] = biological target: T1, BSEP (Homo sapiens, UniProt O95342); experiment: Substrate of BSEP
BSEP [2] = biological target: T1, BSEP; experiment: Inhibitor of BSEP
CYP1A2 mRNA = experiment: CYP1A2 gene expression induction in hepatocyte cultures
CYP2B6 mRNA = experiment: CYP2B6 gene expression induction in hepatocyte cultures
CYP3A4 mRNA = experiment: CYP3A4 gene expression induction in hepatocyte cultures; details: for EC50: read-out: EC50, CYP3A4 gene expression
CYP1A2 = CYP1A2 enzyme activity induction in hepatocyte cultures
CYP3A4/5 = CYP3A4/5 enzyme activity induction in hepatocyte cultures
[3] = two concentrations per test article

With 3H-cholecystokinin octapeptide the “Fold uptake over the vector control by OATP1B3” value (OATP1B3) was 11.1 fold.
ursodeoxycholic acid gave an Efflux ratio (Caco-2 cells; 1 μM) of 1.08, an Efflux ratio (Caco-2 cells; 10 μM) of 1.21 and an Efflux ratios (Caco-2 cells; 1 and 10 μM) of under 2. For the same substance, the “Substrate of BSEP” value (BSEP [1]; 1 and 10 μM) was “not a substrate”, the “Substrate of BSEP” value (BSEP [1]; test article 1 and 10 μM) was “No” and the potency estimated from few doses (BSEP [2]; read-out: Estimated IC50, BSEP, estimated from two concentrations) was under 500 µM. The “Inhibition of BSEP” value (BSEP [2]; [3]) was “inhibited”, the “Inhibitor of BSEP” value (BSEP [2]; [3]) was “Yes” and the “Maximum fold induction of CYP1A2 gene expression” value (CYP1A2 mRNA; Donor 1, 72±2 h, eight concentrations) was 8.33 fold. For the same substance, the “Maximum fold induction of CYP1A2 gene expression” value (CYP1A2 mRNA; Donor 2) was 7.96 fold, the “Maximum fold induction of CYP1A2 gene expression” value (CYP1A2 mRNA; Donor 3) was 7.66 fold and the “Maximum fold induction of CYP2B6 gene expression” value (CYP2B6 mRNA; Donor 1) was 8.59 fold. For the same substance, the “Maximum fold induction of CYP2B6 gene expression” value (CYP2B6 mRNA; Donor 3) was 15.7 fold, the “Emax, CYP3A4 gene expression” value (CYP3A4 mRNA; Donor 1) was 23.6 fold and the “Maximum fold induction of CYP3A4 gene expression” value (CYP3A4 mRNA; Donor 1) was 18.6 fold. The “Relative induction score, CYP3A4” value (CYP3A4 mRNA; Donor 1) was 0.714, the “Emax, CYP3A4 gene expression” value (CYP3A4 mRNA; Donor 2) was 34.3 fold and the “Maximum fold induction of CYP3A4 gene expression” value (CYP3A4 mRNA; Donor 2) was 34.0 fold. For the same substance, the “Relative induction score, CYP3A4” value (CYP3A4 mRNA; Donor 2) was 1.85, the “Emax, CYP3A4 gene expression” value (CYP3A4 mRNA; Donor 3) was 11.5 fold and the “Maximum fold induction of CYP3A4 gene expression” value (CYP3A4 mRNA; Donor 3) was 11.5 fold. The “Inducer of CYP3A4 (conclusion)” value (CYP3A4 mRNA; gene expression and enzyme activity, three donors) was “moderate inducer of CYP3A4”, the EC50 (CYP3A4 mRNA; Donor 1) was 152 µM and the EC50 (CYP3A4 mRNA; Donor 2) was 82.8 µM. For the same substance, the EC50 (CYP3A4 mRNA; Donor 3) was 62.4 µM, the “Maximum fold induction of CYP1A2 activity” value (CYP1A2; Donor 1, 72±2 h, three concentrations) was 4.99 fold and the “Maximum fold induction of CYP1A2 activity” value (CYP1A2; Donor 2) was 2.40 fold. The “Maximum fold induction of CYP1A2 activity” value (CYP1A2; Donor 3) was 4.53 fold, the “Maximum fold induction of CYP3A4/5 activity” value (CYP3A4/5; Donor 1) was 3.74 fold and the “Maximum fold induction of CYP3A4/5 activity” value (CYP3A4/5; Donor 2) was 2.75 fold. For the same substance, the “Maximum fold induction of CYP3A4/5 activity” value (CYP3A4/5; Donor 3) was 4.06 fold.

Where two headings read alike, the source gives them in different places.
